The IC50 is the concentration needed to halve the response being measured.

The values below come from patent US11793886B2, “Hydrophilic linkers and conjugates thereof” (GLYKOS FINLAND OY, priority 2017, dated 2023).

The test system of one series is NCI-N87 cells. Put plainly: In vivo efficacy in subcutaneous HER2-positive tumor xenograft mouse model. The conditions noted are these: NCI-N87 xenograft mice, IV four times at seven day intervals. Also noted: species or system NU(NCr)-Foxnlnu nude mice. From the text:
Seventy five (75) NU(NCr)-Foxnlnu nude mice (9-10 weeks old) were obtained from the Harlan Laboratories and went through 1-week acclimatization per IACUC guidelines (IACUC study LC03337 protocol approval on Jan. 29, 2018; Altogen Labs, Austin, Tex., USA). Mice were housed at Altogen Labs animal facility. The purpose of the study was to test in vivo efficacy of anti-HER2 antibody-drug conjugates (ADCs) compared to control treatment in a subcutaneous HER2-positive tumor xenograft mouse model (NCI-N87 cells, inoculated 1 million cells/mouse in 0.1 ml PBS mixed 1:1 with Matrigel). Trastuzumab-based ADCs conjugated at DAR=8 with maleimidocaproyl-Val-Ser(Glc)-PABC-MMAU were prepared and characterized as described above. Tumors were allowed to grow to approximately 100-150 cubic mm, after which the mice were randomly divided into groups of five mice/group with similar initial tumor sizes between the groups. Treatments were given IV four times at seven day intervals (i.e. once weekly for four weeks). Unconjugated antibody (trastuzumab, positive control) and PBS (negative control) were used in this study as control treatments. Tumor volume data were recorded twice a week. Each animal was evaluated individually and euthanized at the end of the study. Clinical signs and general behavior of the animals is observed in connection with dosing and sampling. Any unusual signs or behavior were recorded. At the end of the study, tumors were prepared and weighed.

The subject of series [1] is HER2+ SKOV-3 ovarian cancer cells. Put plainly: Cytotoxicity assay, serial dilution incubated with cells for four days, viability with PrestoBlue reagent. To be noted: read-out: IC50 (cytotoxicity); SKOV-3 cells, Trastuzumab ADCs with DAR=8, FIG. 6.
A short description of series [2]: Pharmacokinetics in mice, human IgG (ADC) in serum by ELISA. To be noted: single i.v. dose 10 mg/kg, up to 15 d.

On to “trastuzumab-maleimidocaproyl-Val-Ser(Glc)-PABC-MMAU: Trastuzumab conjugated via reduced cysteines with maleimidocaproyl-Val-Ser(Glc)-PABC-MMAU, drug-to-antibody ratio about 8”, for which, in the series on NCI-N87 cells, the “Average tumor size at end of study” value turned out to be 477 mm^3 and the “Tumor growth inhibition (in words)” value was “effectively inhibited tumor growth in vivo”. The IC50 in series [1] was 0.073 nM.
Regarding “Trastuzumab: anti-HER2 antibody Trastuzumab (Herceptin, Roche), naked antibody”, in the series with NCI-N87 cells, the “Average tumor size at end of study” value was determined as 731 mm^3.
For “T-vc-MMAE DAR = 8: trastuzumab-maleimidocaproyl-Val-Cit-PABC-MMAE conjugate (DAR=8) [reference compound]”, in series [2], the “Retention in circulation (in words)” value is recorded as “rapidly lost from circulation”.
